Yeast mating assay 2: variants of the scFv Ab-95

The target is the same throughout: PDVDLGDISGINAS, from the HR2 region of SARS-CoV-2 spike.

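AAYL52 was designed without a model: most single CDR substitutions and a random sample of double and triple ones. In AlphaSeq, yeast of one mating type display the scFv and yeast of the other type display the target. Binding brings cells together so that they mate, and sequencing counts the barcode pairs among the diploids. A regression on co-assayed BCL2-family reference pairs converts the normalised counts of each replicate to an apparent Kd. Mating was done three times.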

Parent: Ab-95, a human scFv built as VH, the linker GGGGSGGGGSGGGGS, VL. Only the CDRs of the light chain vary.
VH: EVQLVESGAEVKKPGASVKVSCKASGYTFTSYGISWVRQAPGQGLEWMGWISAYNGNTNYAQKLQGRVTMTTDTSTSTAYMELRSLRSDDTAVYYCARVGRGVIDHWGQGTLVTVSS
VL: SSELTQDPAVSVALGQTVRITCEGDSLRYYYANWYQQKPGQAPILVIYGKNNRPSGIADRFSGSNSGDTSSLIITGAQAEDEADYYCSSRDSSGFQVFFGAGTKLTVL

The parent's light chain CDRs are EGDSLRYYYAN, GKNNRPS, SSRDSSGFQVF; each variant's own CDRs replace them letter for letter.
This list gathers variants with a substitution at D91 (VL, numbered from residue 1).
Values are apparent Kd, the geometric mean of the replicates that gave a signal; lower means stronger binding.
An entry "nd" has no value in the source: the pair was not observed among the diploids in any replicate. This suggests poor binding but is not conclusive.
As a blank, each scFv also met three strains without target: over library AAYL52, 28% of these pairings were detected, typically at 8.2 µM and seldom below 800 nM. The control count says in how many pairings with the empty strains this scFv gave a signal.

The variant EGDSLRYYYAN / GKNNRPS / KSRMSSGFQYF showed 67 nM (3 of 3 replicates; controls 2 of 9).
The variant EWDSLRYYYAN / GKNNRTS / SSRHSSGFQVF showed 22 µM (1 of 3 replicates; controls 4 of 9).
The variant EGDHLRYYYAN / GKNNRPS / SGRLSSGFQVF showed 950 nM (3 of 3 replicates; controls 0 of 9).
The variant EGDGCRYYYAN / GKNNRPS / SSRTSSGFQVF showed 19 µM (1 of 3 replicates; controls 5 of 9).
The variant EGDGLRYYYAN / GKNNRPS / SSRHSAGFQVF showed 540 nM (3 of 3 replicates; controls 5 of 9).
The variant EGDWLRYYYAN / GKNNRPS / SSRPSSGRQVF showed nd (0 of 3 replicates; controls 4 of 9).
The variant EGDDLEYYYAN / GKNNRPS / SSRKSSGFQVF showed 8.3 µM (2 of 3 replicates; controls 5 of 9).
The variant EGDSLEYYYAN / GKNNRPL / SSRSSSGFQVF showed 360 nM (3 of 3 replicates; controls 0 of 9).
The variant EGDSLRYFYAN / GKNNRPS / LSRHSSGFQVF showed nd (0 of 3 replicates; controls 4 of 9).
The variant EGDSLRYYYAD / GKNNRPS / SSRTSSGFQVQ showed 3.1 µM (3 of 3 replicates; controls 2 of 9).
The variant EGDSLRYYYAN / GKGNRPS / SSRESSGFWVF showed 5.5 µM (2 of 3 replicates; controls 6 of 9).
The variant EGDSLRYYYAN / DKINRPS / SSRESSGFQVF showed 7.1 µM (3 of 3 replicates; controls 1 of 9).
The variant EGPSLEYYYAN / GKNNRPS / SSRGSSGFQVF showed 190 nM (3 of 3 replicates; controls 3 of 9).
The variant EGDFLRYYYAN / GKNNRPS / ISRVSSGFQVF showed 1.5 µM (2 of 3 replicates; controls 2 of 9).
The variant HGDSLRCYYAN / GKNNRPS / SSRTSSGFQVF showed 1.3 µM (3 of 3 replicates; controls 6 of 9).
The variant EGDSLRYYYAN / GKNNRKS / SSRKSSGFQVF showed 35 µM (1 of 3 replicates; controls 5 of 9).
The variant EGDSLRYYYWN / GKNNRPS / SSRQSSGFAVF showed 4.5 µM (2 of 3 replicates; controls 3 of 9).
The variant EGDSLRIYYAN / GKNNRPS / SSRHSSGFTVF showed 5.1 µM (1 of 3 replicates; controls 1 of 9).
The variant EGDSLPYYYAN / GKNNRPS / SSRKSSGFMVF showed 190 nM (3 of 3 replicates; controls 3 of 9).
The variant EGDSLRYYYAN / GENNRPS / CSRWSSGFQVF showed 170 µM (1 of 3 replicates; controls 1 of 9).
The variant EGTSLRYYYAN / GKNNRPS / SSRISSGFQVF showed 13 µM (1 of 3 replicates; controls 3 of 9).
The variant EGDSLRYYYAN / GKNNRPI / VSRYSSGFQVF showed 360 nM (3 of 3 replicates; controls 3 of 9).
The variant EGDSLRYYYAN / GKNARPS / SNRLSSGFQVF showed 4.2 µM (3 of 3 replicates; controls 0 of 9).
The variant NGDSLRYYYAN / GKNNRPD / SSRTSSGFQVF showed 540 nM (3 of 3 replicates; controls 1 of 9).
The variant EGDSLRYYYAN / GKNNFPS / SSRWSNGFQVF showed 9.7 µM (1 of 3 replicates; controls 4 of 9).
The variant EGQSLRYVYAN / GKNNRPS / SSRTSSGFQVF showed 170 nM (3 of 3 replicates; controls 4 of 9).
The variant EGDSLRYYYAN / GWNNRPS / SSRNSSGFQVF showed 2.0 µM (1 of 3 replicates; controls 0 of 9).
The variant EGDSLRYYYRC / GKNNRPS / SSRRSSGFQVF showed 6.1 µM (2 of 3 replicates; controls 4 of 9).
The variant EGDQLRYYYAN / GKNNRPS / SSRRSSGFQVF showed nd (0 of 3 replicates; controls 2 of 9).
The variant EPDSLRYYYAN / GKNNRPS / SWRLSSGFQVF showed 1.2 µM (1 of 3 replicates; controls 2 of 9).
The variant EGMSLRYYYAN / GKNNRPS / SSRHSSGFQQF showed 340 nM (3 of 3 replicates; controls 5 of 9).
The variant EGSSLRYYYAN / GKNNCPS / SSRGSSGFQVF showed 3.4 µM (3 of 3 replicates; controls 3 of 9).
The variant EGDSLRYYYAN / GKNNDPS / SSRISQGFQVF showed 18 µM (2 of 3 replicates; controls 5 of 9).
The variant EGDSLRYYYAK / PKNNRPS / SSRKSSGFQVF showed 21 µM (1 of 3 replicates; controls 1 of 9).
The variant NGDSLRYYYAN / GKNNRPS / SSRNSSGFQVF showed 550 nM (2 of 3 replicates; controls 1 of 9).
The variant EGGSLRYYYAN / KKNNRPS / SSRLSSGFQVF showed 5.3 µM (3 of 3 replicates; controls 5 of 9).
The variant EGDSLRYYYAN / GKNNRNS / SSRGSSGFQVF showed 420 nM (3 of 3 replicates; controls 7 of 9).
The variant EGDSLRYYYAN / LKNNRPS / SVRQSSGFQVF showed 7.0 µM (1 of 3 replicates; controls 0 of 9).
The variant EGDSLRYYYAN / GKNNRTS / SPRTSSGFQVF showed nd (0 of 3 replicates; controls 1 of 9).
The variant EGDSGRYYYAN / GKNNRPS / YSRNSSGFQVF showed 1.8 µM (3 of 3 replicates; controls 4 of 9).
The variant EGDSLGYYYAN / GKNNRPS / SSRTSSGFQVR showed 1.1 µM (3 of 3 replicates; controls 2 of 9).
The variant EGDSLRYYYAN / GKNNRPS / SSRISSGFFFF showed 320 nM (3 of 3 replicates; controls 0 of 9).
The variant EPDSLRYSYAN / GKNNRPS / SSRRSSGFQVF showed nd (0 of 3 replicates; controls 1 of 9).
The variant EGDSLRYPYGN / GKNNRPS / SSRISSGFQVF showed 450 nM (3 of 3 replicates; controls 6 of 9).

6 of these entries, quoted again:

{"CDR-L1": "EGDSLRYYYAN", "CDR-L2": "GKNNFPS", "CDR-L3": "SSRWSNGFQVF", "Kd": "9.7 µM", "seen in": "1/3", "control signals": "4/9"}
{"CDR-L1": "EGDGLRYYYAN", "CDR-L2": "GKNNRPS", "CDR-L3": "SSRHSAGFQVF", "Kd": "540 nM", "seen in": "3/3", "control signals": "5/9"}
{"CDR-L1": "EGDHLRYYYAN", "CDR-L2": "GKNNRPS", "CDR-L3": "SGRLSSGFQVF", "Kd": "950 nM", "seen in": "3/3", "control signals": "0/9"}
{"CDR-L1": "EGDSLRYYYRC", "CDR-L2": "GKNNRPS", "CDR-L3": "SSRRSSGFQVF", "Kd": "6.1 µM", "seen in": "2/3", "control signals": "4/9"}
{"CDR-L1": "EPDSLRYYYAN", "CDR-L2": "GKNNRPS", "CDR-L3": "SWRLSSGFQVF", "Kd": "1.2 µM", "seen in": "1/3", "control signals": "2/9"}
{"CDR-L1": "EGDQLRYYYAN", "CDR-L2": "GKNNRPS", "CDR-L3": "SSRRSSGFQVF", "Kd": "nd", "seen in": "0/3", "control signals": "2/9"}

From the AlphaSeq antibody data of Engelhart et al. 2022 (doi:10.1038/s41597-022-01779-4), copy in the FLAb collection.